# Measurements from ChEMBL document CHEMBL1125652, “Kynurenic acid derivatives. Structure-activity relationships for excitatory amino acid antagonism and identification of potent and selective antagonists at the glycine site on the N-methyl-D-aspartate receptor” (J Med Chem, 1991).
# Key:
# [1] = molecular target: Glutamate NMDA receptor; assay: Inhibition of [3H]-glutamate binding to N-methyl-D-aspartate glutamate receptor of rat cortical membranes; assay type: cell membranes, Membrane
# [2] = molecular target: Glutamate NMDA receptor; assay: Inhibition of [3H]glycine binding to glycine site of N-methyl-D-aspartate glutamate receptor in rat cortical membranes; assay type: cell membranes, Membrane
structure (smiles),measurement,setting,value
O=C(O)c1cc(=O)c2ccccc2[nH]1 [TRANSTORINE],IC50,[1],184 µM
same,IC50,[2],41 µM
